Measurements published in paper PMC3806486.

Target: MYC-tagged p67^phox R38Q (human) (UniProt P19878)
Test: co-IP

reduction of binding in comparison with wild-type p67^phox: 51%
Substance: GFP-tagged RAC2 (from UniProt P15153 1-192) (natural protein)
